Among the data in patent publication US11634412B2, “3-phosphoglycerate dehydrogenase inhibitors and uses thereof” (Raze Therapeutics, Inc., priority 2016, dated 2023) are IC50 values, retold here.

Sequences of proteins named here, by UniProt entry; tags and fusion partners are left off.
UniProt O43175, whole entry: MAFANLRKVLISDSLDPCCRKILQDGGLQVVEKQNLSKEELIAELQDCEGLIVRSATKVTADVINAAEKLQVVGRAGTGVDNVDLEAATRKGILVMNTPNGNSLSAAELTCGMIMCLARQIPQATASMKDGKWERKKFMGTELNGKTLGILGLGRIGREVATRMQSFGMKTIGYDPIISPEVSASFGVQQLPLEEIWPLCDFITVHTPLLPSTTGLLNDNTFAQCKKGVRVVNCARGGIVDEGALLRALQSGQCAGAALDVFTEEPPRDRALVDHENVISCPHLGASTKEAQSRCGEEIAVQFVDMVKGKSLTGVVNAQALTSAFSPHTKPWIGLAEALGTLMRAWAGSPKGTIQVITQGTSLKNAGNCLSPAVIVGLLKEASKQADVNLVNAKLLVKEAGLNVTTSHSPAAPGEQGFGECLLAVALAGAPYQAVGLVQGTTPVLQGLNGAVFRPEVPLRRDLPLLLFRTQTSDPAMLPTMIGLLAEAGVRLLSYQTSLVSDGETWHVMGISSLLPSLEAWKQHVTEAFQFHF

In assay [1] the target is T1, Full length (FL) 3-Phosphoglycerate Dehydrogenase (PHGDH) (Homo sapiens, UniProt O43175). Briefly: Full length (FL) PHGDH Diaphorase coupled assay (20 uM NAD). The note with it: read-out: FL Diaphorase 20 μM NAD, full-length PHGDH 10 nM, 30° C. 60 minutes, resorufin fluorescence.
The target in assay [2] is T1, Full length (FL) 3-Phosphoglycerate Dehydrogenase (PHGDH). Nature of the assay: Full length (FL) PHGDH Diaphorase coupled assay (500 uM NAD). To be noted: read-out: FL Diaphorase 500 μM NAD, full-length PHGDH 5 nM, 30° C. 60 minutes, resorufin fluorescence.

In the case of `CC(=O)NS(=O)(=O)N1CCC(NC(=O)c2cc3c(Cl)c(Cl)ccc3n2C)(c2ccccc2)CC1`, in assay [1], the IC50 is 5 to 10 µM.

Regarding `CC(=O)NS(=O)(=O)c1ccc(C2(NC(=O)c3cc4c(Cl)c(Cl)ccc4n3C)COC2)cc1`, the IC50 in assay [2] was 0.001 to 1 µM.

As for `Cn1c(C(=O)NC2(c3ccc(C(=O)O)cc3)CCOC2)cc2c(Cl)c(Cl)c(OCC(O)CN)cc21` (stereo not shown), the IC50 in assay [2] fell in the range of 1 to 5 µM. On the same count and under the same terms, to `Cn1c(C(=O)NC2(c3ccc(C(=O)O)cc3)CCOCC2)cc2c(Cl)c(Cl)ccc21` belongs 1 to 5 µM. For `COc1ccc2c(cc(C(=O)NC3(c4ccc(C(C(=O)O)C5CCOCC5)cc4)COC3)n2C)c1Cl` (stereo not shown), in assay [2], the IC50 is 0.001 to 1 µM. On the same count and under the same terms, to `COc1ccc2c(cc(C(=O)NC3(c4ccc(C(C(=O)O)C5CCCC5)cc4)COC3)n2C)c1Cl` (single isomer, unassigned) belongs 0.001 to 1 µM.

On to `COc1ccc2c(cc(C(=O)NC3(c4ccc(C(C(=O)O)C(C)C)cc4)COC3)n2C)c1Cl` (single isomer, unassigned), for which, in assay [2], the IC50 lay within 0.001 to 1 µM.
